Measurements reported in ChEMBL document CHEMBL1125838, “Conformational restriction of the phenylalanine residue in a cyclic opioid peptide analogue: effects on receptor selectivity and stereospecificity” (J Med Chem, 1991).

Amino acid sequences for entries named in this document (tags omitted).
UniProt P33535, whole entry: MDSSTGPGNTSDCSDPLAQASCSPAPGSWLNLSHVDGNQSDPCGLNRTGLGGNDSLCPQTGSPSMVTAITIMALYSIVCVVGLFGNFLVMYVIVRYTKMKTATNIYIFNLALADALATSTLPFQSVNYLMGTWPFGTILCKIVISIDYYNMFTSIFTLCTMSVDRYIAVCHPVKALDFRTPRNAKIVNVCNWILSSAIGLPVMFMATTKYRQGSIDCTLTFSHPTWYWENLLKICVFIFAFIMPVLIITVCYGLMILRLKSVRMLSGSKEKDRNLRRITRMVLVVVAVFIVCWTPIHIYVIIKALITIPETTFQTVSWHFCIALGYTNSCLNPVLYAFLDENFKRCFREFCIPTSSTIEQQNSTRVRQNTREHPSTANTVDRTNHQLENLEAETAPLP

Target: Mu-type opioid receptor (Rattus norvegicus, UniProt P33535)
Test: Displacement of [3H]DAGO from rat brain membrane opioid receptor mu

SMILES: NC(=O)[C@@H]1CCC(=O)NCCC[C@@H](NC(=O)[C@@H](N)Cc2ccc(O)cc2)C(=O)N[C@H](Cc2ccccc2)C(=O)N1
- Ki: 1.66 µM
